Values quoted from earlier work as cited in patent publication US9631180B2, “Recombinant manganese oxidase” (OREGON HEALTH & SCIENCE UNIVERSITY, priority 2013, dated 2017).

Tested on: B. licheniformis CotA
Conditions: described in Koschorreck K et al, 2008; cited from earlier work

For `CCn1c(=NN=c2sc3cc(S(=O)(=O)O)ccc3n2CC)sc2cc(S(=O)(=O)O)ccc21` [ABTS, 2,2′-azino-bis(3-ethylbenzthiazoline-6-sulphonic acid)], the Km is given as 124 µM.
